Read-outs that look alike come from different tables or passages of the source. Where only a bound is given, the exact number is not on record here.

For orientation: IC50 means the concentration that inhibits the measured activity by half.

One experiment has as its system MV4-11 cells. In words: Inhibition of LSD1-mediated cellular proliferation, CellTiter Glo luminescence assay. Type of experiment: cell-based. To be noted: Homo sapiens, read-out: EC50 (nM), Inhibition of LSD1-mediated Cell Proliferation. (In general: ATP-based viability assays read luminescence as a measure of living cells.)
Experiment [1] addresses purified N-terminal truncated human LSD1 enzyme (aa 151-852) (Homo sapiens (Human), UniProt O60341). In words: LSD1 fluorescence coupling enzymatic assay (horseradish peroxidase/Amplex Red). In kind it is biochemical. Conditions: 50 nM LSD1, 30 min pre-incubation, 10 μM histone 3.3 peptide (aa 1-21), 10-point dose-response; read-out: IC50 (nM), Inhibition of LSD1 Activity.

For the compound `CONC(=O)/C=C/c1ccc(CN2CCC(N[C@@H]3C[C@H]3c3ccccc3)CC2)cc1` (relative stereo) [Example 1, (E)-N-Methoxy-3-(4-((4-(((trans)-2-phenylcyclopropyl)amino)piperidin-1-yl)methyl)phenyl)acrylamide], the EC50 in the experiment with MV4-11 cells (MV4-11, 168 h) turned out to be 1 nM.

Take `CS(=O)(=O)NC(=O)/C=C/c1ccc(CN2CCC(N[C@@H]3C[C@H]3c3ccccc3)CC2)cc1` (relative stereo) [Example 2, (E)-N-(Methylsulfonyl)-3-(4-((4-(((trans)-2-phenylcyclopropyl)amino)piperidin-1-yl)methyl)phenyl)acrylamide]: in the experiment on MV4-11 cells (MV4-11, 168 h), the EC50 worked out at 14 nM.

As for `CONC(=O)/C=C/c1cccc(CN2CCC(N[C@@H]3C[C@H]3c3ccccc3)CC2)c1` (relative stereo) [Example 3, (E)-N-Methoxy-3-(3-((4-(((trans)-2-phenylcyclopropyl)amino)piperidin-1-yl)methyl)phenyl)acrylamide], the IC50 in experiment [1] is 25 nM. Also, the EC50 in the experiment with MV4-11 cells (MV4-11, 168 h) turned out to be 3 nM.

Consider `CS(=O)(=O)NC(=O)/C=C/c1cccc(CN2CCC(N[C@@H]3C[C@H]3c3ccccc3)CC2)c1` (relative stereo) [Example 4, (E)-N-(Methylsulfonyl)-3-(3-((4-(((trans)-2-phenylcyclopropyl)amino)piperidin-1-yl)methyl)phenyl)acrylamide], for which the EC50 in the experiment with MV4-11 cells (168 h, MV4-11 cells, Day 7, cell viability by CellTiter Glo) turned out to be 55 nM.

Take `CS(=O)(=O)NC(=O)/C=C/c1ccc(CN2CCC(N[C@@H]3C[C@H]3c3ccccc3)CC2)cc1` [Example 15, (E)-N-(Methylsulfonyl)-3-(4-((4-(((1R,2S)-2-phenylcyclopropyl)amino)piperidin-1-yl)methyl)phenyl)acrylamide]: the EC50 with MV4-11 cells (MV4-11, 168 h) was under 1 nM.

Take `O=C(Cc1ccc(CN2CCC(N[C@@H]3C[C@H]3c3ccccc3)CC2)cc1)NS(=O)(=O)C1CC1` [Example 45, N-(cyclopropylsulfonyl)-2-(4-((4-(((1R,2S)-2-phenylcyclopropyl)amino)piperidin-1-yl)methyl)phenyl)acetamide]: in the experiment on MV4-11 cells (MV4-11, 168 h), the EC50 came to 43 nM.

The values above are taken from US10059668B2 (Mirati Therapeutics, Inc., priority 2015, dated 2018).
